# Values quoted from earlier work, collected in US20140100282A1, “INTRANASAL ADMINISTRATION OF PHARMACEUTICAL AGENTS FOR TREATMENT OF NEUROLOGICAL DISEASES” (priority 2012, published 2014).
# Details: octanol/water partitioning
substance,measurement,value
metformin laurate,LogD,0.44
